Shown are actives, neighbours in structure and some others; about 4.2% of the full set was active somewhere.
HDAC3 inh – HDAC3 deacetylase inhibitors, primary screen, biochemical, fluorescence, cell-free homogeneous. recombinant HDAC3, fluorogenic peptide/trypsin coupled. inhibition, % at 8.3 µM. 320,000 tested, 0.15% active; in the data active = inhibition above about 26%, passing the limit was not always enough
NALP1 inh – NALP1 inflammasome inhibitors in reconstituted yeast, colorimetric, S. cerevisiae, triplicate retest; AID 2071, 2009; S. cerevisiae NALP1/ASC/caspase-1 growth, X-gal OD620, 72 h; 280,000 tested, 0.61% active; inhibition, % at 10 µM; in the data active = inhibition mostly above about 24%, no sharp cut-off; inactive = mostly below about 32%
UUG fidelity – modulators of start codon recognition fidelity in yeast. S. cerevisiae UUG-firefly luciferase reporter, luminescence/redox ratio. activity score, % at 18.7 µM. 0.13% of 350,000 active. AID 602363;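 active = replicate mean at a twofold rise or more, about +100% in these data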;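 also: firefly luciferase made from a UUG start codon reports start codon fidelity; reporter light over untreated wells divided by growth signal over untreated wells; some hits fall short of that in this replicate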
ALR inh – inhibitors of human ALR sulfhydryl oxidase, primary screen, biochemical, H2O2 detection, HRP-luminol luminescence, single point; FAD-linked sulfhydryl oxidase ALR (Homo sapiens), P55789; purified ALR, DTT oxidation; inhibition, % (concentration not given with the values); AID 485317, 2010; actives 3.8% (n = 290,000);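 active means mean and each replicate at 75% or more; inconclusive means only one of the two met; inactive means neither met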;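 further: stock transfer was 7.5 nL into about 7.5 µL; 0% = neutral wells and 100% = wells with inactivated enzyme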
MC4R antagonist – MC4R antagonists of cAMP signaling, primary screen, cell-based, TR-FRET, antagonist arm of biased-ligand search. inhibition, % at 6.5 µM. 360,000 tested, 0.48% active. Melanocortin receptor 4 (Homo sapiens), P32245. MC4R-expressing cells, MTII-stimulated cAMP, LANCE TR-FRET. AID 540295, 2011;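 active = inhibition above its plate's cutoff, the mean of tested wells on that plate plus 3 SD, cut at about 29% in these data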
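System: U2OS cells stably expressing human melanocortin 4 receptor (MC4R). Reagent: Melanotan II challenge after compound preincubation. Doses: 6.5 µM. Times: 30-min compound, 1-h challenge, 1-h detection, room temperature. Measured by: TR-FRET with Eu-cAMP and labeled anti-cAMP, 671 nm. Replicates: singlicate.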
MC4R ag barr – MC4R agonists recruiting beta-arrestin, primary screen, cell-based, luminescence, agonist arm of biased-ligand search; Melanocortin receptor 4 (Homo sapiens), P32245; U2OS MC4R beta-arrestin complementation; percent of melanotan II response, DMSO zero; activation, % at 8.9 µM; 360,000 tested, 0.98% active;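 active = activation above a per-plate cutoff, the mean activation of sample wells on that plate plus 3 SD, cut at about 8% in these data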
Of the large screens only hits and unclear results are named; the others gave an inactive call.

By UniProt entry, the sequences of proteins in these tests, tags left out.
Melanocortin receptor 4 (Homo sapiens), P32245, UniProt P32245, whole entry, looked up: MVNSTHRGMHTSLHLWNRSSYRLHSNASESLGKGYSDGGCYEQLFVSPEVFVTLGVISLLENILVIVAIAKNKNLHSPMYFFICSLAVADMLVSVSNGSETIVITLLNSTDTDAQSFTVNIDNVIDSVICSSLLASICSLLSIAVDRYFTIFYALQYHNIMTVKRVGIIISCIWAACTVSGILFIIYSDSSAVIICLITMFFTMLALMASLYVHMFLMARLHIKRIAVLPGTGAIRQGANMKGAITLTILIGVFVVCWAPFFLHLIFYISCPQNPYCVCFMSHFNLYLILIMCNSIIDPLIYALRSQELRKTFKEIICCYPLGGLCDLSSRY

CN[C@H]1C[C@H]2O[C@@](C)([C@H]1OC)n1c3ccccc3c3c4c(c5c6ccccc6n2c5c31)C(=O)NC4	NALP1 inh 92 (no result: HDAC3 inh, UUG fidelity, ALR inh, MC4R antagonist, MC4R ag barr)
CN1C2CCC1/C(=C/c1ccccn1)C(=O)/C2=C\c1ccccn1	NALP1 inh 101
CC1CCCC(C)N1/N=C/c1c[nH]c2ccc(Br)cc12 (stereo unspecified)	NALP1 inh 65, ALR inh 99 (no result: UUG fidelity)
CN1CCC(c2c[nH]c3ccc(O)cc23)CC1	none (no result: HDAC3 inh, NALP1 inh, ALR inh)
CN(C)CC#Cc1ccc([C@@H]2[C@@H](CO)N3CCCCN(C(=O)Cc4ccccn4)C[C@H]23)cc1	none (no result: HDAC3 inh, NALP1 inh, ALR inh, MC4R antagonist, MC4R ag barr)
CCCC#Cc1ccc([C@H]2[C@H]3CN(C(=O)Cc4ccccn4)CCCCN3[C@H]2CO)cc1	none (no result: HDAC3 inh, NALP1 inh, ALR inh, MC4R antagonist, MC4R ag barr)
CC(C)(C)c1cc(C=C(C#N)C#N)cc(C(C)(C)C)c1O	none (no result: NALP1 inh)
N#CC(C#N)=Cc1ccc(O)c(O)c1	ALR inh 98 (no result: NALP1 inh)
O=C(Cc1cccnc1)N1CCCCN2[C@H](CO)[C@@H](c3ccc(C#CC4(O)CCCC4)cc3)[C@H]2C1	none (no result: HDAC3 inh, NALP1 inh, ALR inh, MC4R antagonist, MC4R ag barr)
CCCC#Cc1ccc([C@@H]2[C@@H](CO)N3CCCCN(C(=O)Cc4ccccn4)C[C@@H]23)cc1	none (no result: HDAC3 inh, NALP1 inh, ALR inh, MC4R antagonist, MC4R ag barr)
O=C(O)CCCc1ccc(N(CCCl)CCCl)cc1	ALR inh 99
FC(F)(F)c1ccc2c(c1)N(CCCN1CCN(CCCl)CC1)c1ccccc1S2	ALR inh 99 (no result: UUG fidelity)
COc1ccc(N2CCN(C(CNC(=O)Oc3ccccc3)c3cccnc3)CC2)cc1 (stereo unspecified)	ALR inh 85 (no result: UUG fidelity)
COC(=O)[C@H]1[C@H](CO)[C@H]2Cn3c(ccc(C4=CCCCC4)c3=O)[C@@H]1N2CC1CCCC1	none (no result: HDAC3 inh, NALP1 inh, ALR inh, MC4R antagonist, MC4R ag barr)
Cn1c(O)c(/C=N/N2CCOCC2)c(=O)n(-c2ccccc2)c1=S	NALP1 inh 37 (no result: ALR inh)
N#Cc1cccc(-c2ccc([C@H]3[C@@H](CO)N4CCCCN(C(=O)Cc5ccccc5)C[C@@H]34)cc2)c1	none (no result: HDAC3 inh, NALP1 inh, ALR inh, MC4R antagonist, MC4R ag barr)
CCN(CC)C(=O)c1ccc2c(c1)C1C(Cl)C(Sc3ccccc3[N+](=O)[O-])CC1C(C(=O)O)N2 (stereo unspecified)	ALR inh 97 (no result: UUG fidelity)
N#Cc1c(/N=C/C2C(=O)NC(=S)NC2=O)sc2c1CCCC2	ALR inh 93
CCOC(=O)c1c(/N=C/C2C(=O)NC(=S)NC2=O)sc2c1CCC2	none
CN1C(=O)C(Cc2cccc3ccccc23)C(=O)N(C)C1=O	none (no result: NALP1 inh)
O=C1C2CCN(CC2)[C@@H]1Cc1ccc2ccccc2c1O	ALR inh 81
C[C@H]1C[C@@H](C)C(=O)[C@@H]([C@H](O)CC2CC(=O)NC(=O)C2)C1	NALP1 inh 100
O=C(Cc1ccccc1)N1CCCCN2[C@H](C1)[C@H](c1ccc(-c3ccccc3)cc1)[C@@H]2CO	none (no result: HDAC3 inh, NALP1 inh, ALR inh, MC4R antagonist, MC4R ag barr)
COc1ccc(-c2nc(CSCC(=O)N3CCC4(CC3)OCCO4)c(C)o2)cc1OC	ALR inh 100 (no result: UUG fidelity)
Cc1oc(-c2cccs2)nc1CSCC(=O)N1CCC2(CC1)OCCO2	ALR inh 99
COc1ccc(C#Cc2ccc([C@@H]3[C@H]4CN(C(=O)Cc5ccccc5)CCCCN4[C@H]3CO)cc2)cc1	none (no result: HDAC3 inh, NALP1 inh, ALR inh, MC4R antagonist, MC4R ag barr)
CN1[C@@H](CO)[C@@H]2c3ccccc3NC[C@@H]21	none (no result: HDAC3 inh, NALP1 inh, ALR inh, MC4R antagonist, MC4R ag barr)
COc1cc2c(cc1O)C[C@H]1c3c(cc(O)c(OC)c3-2)CCN1C	ALR inh 98 (no result: NALP1 inh)
CN1CCc2cc(O)cc3c2[C@H]1Cc1ccc(O)c(O)c1-3	ALR inh 99 (no result: NALP1 inh)
CCCN1CCc2cc(O)cc3c2[C@H]1Cc1ccc(O)c(O)c1-3	ALR inh 99 (no result: NALP1 inh)
COc1cc2c(cc1O)[C@@H]1Cc3ccc(OC)c(O)c3CN1CC2	none (no result: NALP1 inh)
O=C(Cc1ccncc1)N1CCCCN2[C@H](CO)[C@@H](c3ccc(C#Cc4ccccc4F)cc3)[C@@H]2C1	none (no result: HDAC3 inh, NALP1 inh, ALR inh, MC4R antagonist, MC4R ag barr)
O=C(Cc1cccnc1)N1CCCCN2[C@H](CO)[C@H](c3ccc(C#CC4(O)CCCC4)cc3)[C@H]2C1	none (no result: HDAC3 inh, NALP1 inh, ALR inh, MC4R antagonist, MC4R ag barr)
C/C(O)=C(\C#N)C(=O)Nc1cc(Br)ccc1Br	ALR inh 97 (no result: NALP1 inh)
Cc1[nH]c2ccccc2c1/C=N/O	ALR inh 96
O=C(Cc1cccnc1)N1CCCCN2[C@H](CO)[C@H](c3ccc(C#CC4CC4)cc3)[C@H]2C1	none (no result: HDAC3 inh, NALP1 inh, ALR inh, MC4R antagonist, MC4R ag barr)
C[C@@H]1O[C@@H](O[C@H]2C[C@@H](O)[C@]3(CO)[C@H]4[C@H](O)C[C@]5(C)[C@@H](C6=CC(=O)OC6)CC[C@]5(O)[C@@H]4CC[C@]3(O)C2)[C@H](O)[C@H](O)[C@H]1O	MC4R ag barr 35
N#C/C(=C(/O)c1ccc(S(=O)(=O)N(CCCl)CCCl)cc1)c1nc2ccccc2[nH]1	none (no result: NALP1 inh, UUG fidelity, ALR inh)
O=C(O)c1c[nH]c2ccc(S(=O)(=O)N(CCCl)CCCl)cc12	NALP1 inh 40
COc1ccc(-c2ccc([C@@H]3[C@H]4CN(C(=O)Cc5ccncc5)CCCCN4[C@H]3CO)cc2)cc1	none (no result: HDAC3 inh, NALP1 inh, ALR inh, MC4R antagonist, MC4R ag barr)
CC(=NCc1ccco1)c1c(O)n(C)c(=O)n(C)c1=O	NALP1 inh 42
CCC(=NCc1ccco1)c1c(O)n(C)c(=O)n(C)c1=O	none (no result: NALP1 inh, UUG fidelity)
COCC#Cc1ccc([C@H]2[C@H](CO)N3CCCCN(C(=O)Cc4ccccn4)C[C@@H]23)cc1	none (no result: HDAC3 inh, NALP1 inh, ALR inh, MC4R antagonist, MC4R ag barr)
O=P(CN1CCN(c2ccccc2)CC1)(N1CCCCC1)N1CCCCC1	ALR inh 99
Oc1cc2c(cc1CN1CCN(c3ccccc3)CC1)CCC2	none (no result: NALP1 inh, ALR inh)
Cc1ccc(Sc2ccc(C=C3C(=O)N(C)C(=O)N(C)C3=O)o2)cc1	ALR inh 97
CN=C(SCc1cc2c(cc1Cl)OCO2)c1c(O)n(C)c(=O)n(C)c1=O	ALR inh 101
CCCCn1c(O)c(C(C)=NCCN2CCOCC2)c(=O)[nH]c1=O	none
CCCCn1c(O)c(C(CC)=NCCN2CCOCC2)c(=O)[nH]c1=O	NALP1 inh 44
N#Cc1cccc(-c2ccc([C@@H]3[C@H]4CN(C(=O)Cc5ccncc5)CCCCN4[C@H]3CO)cc2)c1	none (no result: HDAC3 inh, NALP1 inh, ALR inh, MC4R antagonist, MC4R ag barr)
CC1OC(OC2C(O)CC(OC3C(O)CC(OC4CCC5(C)C(CCC6C5CCC5(C)C(C7=CC(=O)OC7)C(O)CC65O)C4)OC3C)OC2C)CC(O)C1O (stereo unspecified)	MC4R ag barr 27 (no result: HDAC3 inh, NALP1 inh, UUG fidelity, ALR inh)
CC(=O)OC1CC2(O)C3CCC4CC(O)CCC4(C)C3CCC2(C)C1C1=CC(=O)OC1 (stereo unspecified)	MC4R ag barr 17 (no result: HDAC3 inh, NALP1 inh, UUG fidelity, ALR inh)
